Measurements taken from US20240024500A1, “ELECTROSTATIC NANOPARTICLES AND USE THEREOF” (Westfaelische Wilhelms-Universitaet Muenster, priority 2020, published 2024).

System: EGFR-negative SKNM-C-cell cultures
Assay: Negative control: siRNA transport into EGFR-negative cells
Assay type: cell-based
From the text: Whenever we performed negative control experiments, i.e. treating cells NOT expressing the EGF receptor with effective conjugates targeting the EGF receptor, we consequently observed extremely low cellular targeting efficiencies (FIG. 32 B), but we were intrigued by the accumulation of fluorescent micellar structures OUTSIDE the cells. These accumulations, probably attached to matrix-like structures on the treated dish surface, were only seen, if there was no target found on the cells to bind and internalize the conjugates. In addition, these accumulations were all of a similar size and, they had to be much larger than the approx. 10-20 nm, which would account for a monomer of one IgG plus several protamines plus eight attached siRNAs, because this size would not be detectable as a particle in fluorescent light microscopy, which approximately has a resolution of half of the emission wavelength, giving rise to particle sizes larger than 200 nm.

“Uncoupled cetuximab: anti-EGFR monoclonal antibody cetuximab, not coupled to protamine” was tested, and the “transport of Alexa488-control siRNA into EGFR-negative SKNM-C cells” value was “does not transport”.
